Data reported in publication PMC4820845, “ELL targets c-Myc for proteasomal degradation and suppresses tumour growth” (Nature Communications, 2016).

Target: T1, His-tagged ELL (human, UniProt P55199 1-621)
T1 construct: ELL, human; also called His-ELL; His6-ELL; source: E. coli (BL21), purified
T1 sequence (looked up): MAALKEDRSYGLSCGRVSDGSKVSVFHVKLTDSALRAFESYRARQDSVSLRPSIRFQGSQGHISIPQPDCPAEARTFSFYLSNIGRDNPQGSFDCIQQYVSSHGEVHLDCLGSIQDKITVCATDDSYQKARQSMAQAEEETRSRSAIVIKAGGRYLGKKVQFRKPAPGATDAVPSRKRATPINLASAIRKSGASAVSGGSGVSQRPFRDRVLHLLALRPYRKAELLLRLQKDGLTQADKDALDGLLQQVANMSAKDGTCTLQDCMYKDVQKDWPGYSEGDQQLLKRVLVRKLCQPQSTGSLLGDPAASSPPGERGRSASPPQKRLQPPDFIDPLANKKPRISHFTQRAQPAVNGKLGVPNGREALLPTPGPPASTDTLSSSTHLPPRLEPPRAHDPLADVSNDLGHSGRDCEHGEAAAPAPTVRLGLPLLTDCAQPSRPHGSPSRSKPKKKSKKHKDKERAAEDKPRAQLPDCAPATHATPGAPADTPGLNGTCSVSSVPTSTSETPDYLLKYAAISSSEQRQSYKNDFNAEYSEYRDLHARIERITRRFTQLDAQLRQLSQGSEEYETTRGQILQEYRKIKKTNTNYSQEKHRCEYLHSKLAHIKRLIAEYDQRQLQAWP
Assay: pull-down; GST-tagged c-Myc on GST-Bind Resin, His-tagged ELL detected by western blot; both expressed in E. coli (BL21) and purified
Details: both partners purified

B1: GST-tagged c-Myc (natural protein, human, UniProt P01106-1 1-439, looked up)
chain: MPLNVSFTNRNYDLDYDSVQPYFYCDEEENFYQQQQQSELQPPAPSEDIWKKFELLPTPPLSPSRRSGLCSPSYVAVTPFSLRGDNDGGGGSFSTADQLEMVTELLGGDMVNQSFICDPDDETFIKNIIIQDCMWSGFSAAAKLVSEKLASYQAARKDSGSPNPARGHSVCSTSSLYLQDLSAAASECIDPSVVFPYPLNDSSSPKSCASQDSSAFSPSSDSLLSSTESSPQGSPEPLVLHEETPPTTSSDSEEEQEDEEEIDVVSVEKRQAPGKRSESGSPSAGGHSKPPHSPLVLKRCHVSTHQHNYAAPPSTRKDYPAAKRVKLDSVRVLRQISNNRKCTSPRSSDTEENVKRRTHNVLERQRRNELKRSFFALRDQIPELENNEKAPKVVILKKATAYILSVQAEEQKLISEEDLLRKRREQLKHKLEQLRNSCA
notes: c-Myc, human; the printed residue numbers fit the 439-residue form; also called GST-c-Myc; source: E. coli (BL21), purified
**Q.** Does B1 bind?
**A.** Result: binds
